Assay results: BindingDB's records for 18825527

Amino acid sequences for entries named in this document (tags omitted). Residues count along the entry.
UniProt P06276, 29-602 limits assumed: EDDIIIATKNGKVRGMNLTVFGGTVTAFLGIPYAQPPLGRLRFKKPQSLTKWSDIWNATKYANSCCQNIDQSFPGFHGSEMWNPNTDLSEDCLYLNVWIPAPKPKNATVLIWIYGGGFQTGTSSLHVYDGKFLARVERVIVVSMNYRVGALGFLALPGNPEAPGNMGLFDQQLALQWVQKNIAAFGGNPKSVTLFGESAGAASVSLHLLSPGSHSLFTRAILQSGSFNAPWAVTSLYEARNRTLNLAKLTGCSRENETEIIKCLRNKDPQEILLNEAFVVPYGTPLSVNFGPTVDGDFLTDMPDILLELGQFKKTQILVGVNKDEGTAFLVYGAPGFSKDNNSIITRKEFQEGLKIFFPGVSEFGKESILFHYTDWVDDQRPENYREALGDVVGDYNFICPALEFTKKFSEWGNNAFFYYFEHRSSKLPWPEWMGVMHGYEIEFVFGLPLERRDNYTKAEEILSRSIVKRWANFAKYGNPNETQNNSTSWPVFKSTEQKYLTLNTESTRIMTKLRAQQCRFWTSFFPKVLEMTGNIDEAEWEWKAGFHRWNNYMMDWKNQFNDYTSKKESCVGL
UniProt Q03311, 30-603 limits assumed: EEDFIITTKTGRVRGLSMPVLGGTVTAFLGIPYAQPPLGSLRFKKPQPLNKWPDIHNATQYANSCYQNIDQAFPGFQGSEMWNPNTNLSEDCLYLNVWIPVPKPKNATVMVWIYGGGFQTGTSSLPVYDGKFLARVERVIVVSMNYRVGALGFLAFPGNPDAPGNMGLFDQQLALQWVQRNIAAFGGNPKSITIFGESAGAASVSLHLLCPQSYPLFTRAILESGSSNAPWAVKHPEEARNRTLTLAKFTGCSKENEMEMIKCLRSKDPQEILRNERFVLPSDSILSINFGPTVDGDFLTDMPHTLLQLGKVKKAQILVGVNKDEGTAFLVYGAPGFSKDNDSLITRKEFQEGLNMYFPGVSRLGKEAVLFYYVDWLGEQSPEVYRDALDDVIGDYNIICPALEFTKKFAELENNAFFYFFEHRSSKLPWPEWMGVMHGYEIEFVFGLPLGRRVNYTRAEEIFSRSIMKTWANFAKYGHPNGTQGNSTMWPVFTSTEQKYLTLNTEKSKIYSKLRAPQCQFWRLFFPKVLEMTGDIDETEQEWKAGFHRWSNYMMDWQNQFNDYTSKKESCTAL
UniProt P22303, 32-614 limits assumed: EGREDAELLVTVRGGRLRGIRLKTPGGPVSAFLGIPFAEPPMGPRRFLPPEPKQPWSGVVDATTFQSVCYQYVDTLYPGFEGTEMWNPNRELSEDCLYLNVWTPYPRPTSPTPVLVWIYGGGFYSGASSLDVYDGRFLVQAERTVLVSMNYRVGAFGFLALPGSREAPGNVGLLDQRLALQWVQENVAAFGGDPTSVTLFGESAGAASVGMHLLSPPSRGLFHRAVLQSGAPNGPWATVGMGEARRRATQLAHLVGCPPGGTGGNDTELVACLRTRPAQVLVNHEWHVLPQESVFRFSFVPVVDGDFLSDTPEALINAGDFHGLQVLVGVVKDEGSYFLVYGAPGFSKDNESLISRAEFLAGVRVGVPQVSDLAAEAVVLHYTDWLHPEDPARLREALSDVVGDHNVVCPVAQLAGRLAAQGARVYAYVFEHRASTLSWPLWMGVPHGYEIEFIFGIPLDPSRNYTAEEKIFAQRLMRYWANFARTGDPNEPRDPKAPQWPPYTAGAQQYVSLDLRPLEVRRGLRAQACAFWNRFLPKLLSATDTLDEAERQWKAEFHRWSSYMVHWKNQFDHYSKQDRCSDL
UniProt P21836, 32-614 limits assumed: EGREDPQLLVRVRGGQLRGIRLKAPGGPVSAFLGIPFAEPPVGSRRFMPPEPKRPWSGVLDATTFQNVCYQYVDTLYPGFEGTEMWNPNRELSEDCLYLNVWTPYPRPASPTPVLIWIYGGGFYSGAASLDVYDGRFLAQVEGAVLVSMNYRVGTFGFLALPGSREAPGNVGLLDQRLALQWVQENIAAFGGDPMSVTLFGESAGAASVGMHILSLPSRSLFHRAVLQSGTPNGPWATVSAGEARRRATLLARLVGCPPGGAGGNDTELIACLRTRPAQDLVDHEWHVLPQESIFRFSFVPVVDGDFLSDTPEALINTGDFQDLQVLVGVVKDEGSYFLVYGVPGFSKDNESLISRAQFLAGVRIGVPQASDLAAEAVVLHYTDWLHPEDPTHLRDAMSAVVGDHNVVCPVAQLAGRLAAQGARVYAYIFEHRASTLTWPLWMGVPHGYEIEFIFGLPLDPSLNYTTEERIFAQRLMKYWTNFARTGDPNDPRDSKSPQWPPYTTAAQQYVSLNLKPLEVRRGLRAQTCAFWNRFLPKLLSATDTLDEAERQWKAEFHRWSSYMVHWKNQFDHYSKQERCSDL

Assays:
Assay in all cases: Inhibition Assay
[1] = biological target: Cholinesterase (Homo sapiens, UniProt P06276); conditions: pH 7.4
[2] = biological target: Cholinesterase (Mus musculus, UniProt Q03311)
[3] = biological target: Acetylcholinesterase (Homo sapiens, UniProt P22303); conditions: pH 7.4
[4] = biological target: Acetylcholinesterase (Mus musculus, UniProt P21836)

Row | Compound | IC50 [1] [mM] | Kd [1] [mM] | IC50 [2] [mM] | IC50 [3] [mM] | Kd [3] [mM] | IC50 [4] [mM] | IC50 ([4]; pH 7.4) [mM]
1 | O=C(NP(=O)(Cl)Cl)c1ccccc1 | 4.8 | 18 | 9.9 | 0.385 | 1.1 | 0.82 | 
2 | O=C(NP(=O)(Cl)Cl)c1ccc(Br)cc1 | 0.65 | 2.1 | 1.6 | 0.057 | 0.23 |  | 0.13
3 | O=C(NP(=O)(Cl)Cl)c1ccc(Cl)cc1 | 0.92 | 43 |  | 87 | 0.206 |  | 
4 | Cc1ccc(C(=O)NP(=O)(Cl)Cl)cc1 | 1.2 | 8.9 |  | 0.26 | 0.554 |  | 
